The values that follow are results of earlier work, collected in US20080227813A1, “Pharmaceutical compositions and methods for treating diseases associated with neurodegeneration” (priority 2006, published 2008).

The data set deals with patients suffering from ALS. The conditions noted are these: cited from earlier work.

`Nc1nc2ccc(OC(F)(F)F)cc2s1` [riluzole, Riluzole]: the extension of survival result is recorded as “approximately 3 months”.
